Four compounds from ChEMBL document CHEMBL1153469, “Antimicrobial and immunomodulatory properties of prenylated xanthones from twigs of Garcinia staudtii” (Bioorg Med Chem, 2009) can be followed below.

For the assay, the system named is PBMC. In words: Immunomodulatory activity in human PBMC assessed as inhibition of phytohemagglutinin-induced T-cell proliferation after 72 hrs by [3H]thymidine incorporation assay. Format: functional, cell-based. For orientation: Incorporation of labelled thymidine or its analogues reports DNA synthesis.
Regarding `CC(C)=CCc1c(O)c(CC=C(C)C)c2oc3c(O)cc(O)cc3c(=O)c2c1O` [STAUDTIIXANTHONE A], the Activity entry is “Dose-dependent effect”.
In the case of `CC(C)=CCc1c2c(c(O)c3c(=O)c4cc(O)cc(O)c4oc13)C=CC(C)(C)O2` [STAUDTIIXANTHONE B] it was “Dose-dependent effect”; in that of `CC(C)=CCc1c2c(c3oc4c(O)cc(O)cc4c(=O)c3c1O)C=CC(C)(C)O2` [STAUDTIIXANTHONE C], “Dose-dependent effect”.
In the case of `COc1cc2oc3c4c(cc(O)c3c(=O)c2c2c1OC(C)(C)CC2)OC(C)(C)CC4` [STAUDTIIXANTHONE D] it was “Dose-dependent effect”.
